Legend:
[1] = target: Delta-type opioid receptor (Rattus norvegicus, UniProt P33533); assay: Evaluated for the inhibition of [3H]DADLE binding to Opioid receptor delta 1 in rat brain homogenates.
Mu-type opioid receptor = Mu-type opioid receptor (Rattus norvegicus, UniProt P33535); assay: Evaluated for the inhibition of [3H]naltrexone binding to Opioid receptor mu 1 in rat brain homogenates.

The chains behind the UniProt entries cited, without tags or fusion partners. Where a name states a change or a piece, a line headed by the entry shows the natural chain unless it says otherwise.
UniProt P33533: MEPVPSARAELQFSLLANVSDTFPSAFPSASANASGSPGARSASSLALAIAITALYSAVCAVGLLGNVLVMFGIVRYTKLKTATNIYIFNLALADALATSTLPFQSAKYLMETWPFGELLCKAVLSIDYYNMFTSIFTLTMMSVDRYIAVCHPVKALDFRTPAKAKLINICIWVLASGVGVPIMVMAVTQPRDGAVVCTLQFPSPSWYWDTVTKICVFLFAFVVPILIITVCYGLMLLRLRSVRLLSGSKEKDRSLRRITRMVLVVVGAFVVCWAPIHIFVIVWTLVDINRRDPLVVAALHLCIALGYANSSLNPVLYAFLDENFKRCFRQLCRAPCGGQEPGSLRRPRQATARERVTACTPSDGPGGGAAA
UniProt P33535: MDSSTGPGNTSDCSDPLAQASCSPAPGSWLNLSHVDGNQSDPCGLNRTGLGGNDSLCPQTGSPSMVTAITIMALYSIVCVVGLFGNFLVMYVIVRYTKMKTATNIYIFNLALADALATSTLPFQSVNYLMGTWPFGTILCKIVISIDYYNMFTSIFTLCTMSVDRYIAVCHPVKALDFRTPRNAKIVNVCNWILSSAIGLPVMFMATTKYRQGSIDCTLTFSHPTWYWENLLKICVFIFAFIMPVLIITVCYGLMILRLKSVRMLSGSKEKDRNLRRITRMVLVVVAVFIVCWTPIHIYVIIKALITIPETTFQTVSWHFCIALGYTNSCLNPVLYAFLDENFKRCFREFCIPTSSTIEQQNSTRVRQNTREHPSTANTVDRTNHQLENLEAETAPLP

Substance	IC50 [1]	IC50 (Mu-type opioid receptor)
7alpha-[(1R)-1-Hydroxy1-methyl-3-[4-[3-(bromomercurio)-2-methoxypropoxy]phenyl]-6,14-endo-ethenotetrahydro-N-(cyclopropylmethyl)northebaine]	0.1 µM	0.1 µM
HYBROMET	0.25 µM	0.095 µM

Reference: ChEMBL document CHEMBL1122880, “Hybromet: a ligand for purifying opioid receptors” (1985)
